Reference: US6838277B1, “Furthering the enzymatic destruction of nerve agents” (dated 2005)

What was measured:
B. caryophilli PG2982 = experiment: Growth on phosphonates as the sole source of phosphorus; settings: data not shown
P. testosteroni = experiment: as above; settings: 0.3 mM, NMM broth, 94 hours, 28° C.
OPH = settings: product of diisopropyl fluorophosphate hydrolysis by OPH; cited from earlier work

With `O=C(O)CNCP(=O)(O)O` the “utilization as the sole phosphorus source” value (B. caryophilli PG2982) was “capable of utilizing”.

With inorganic phosphate the “growth on phosphorus source as sole phosphorus source” value (P. testosteroni) was “robust growth”.

In the case of diisopropyl phosphate, the “effect on OPH activity” value (OPH) is given as “inhibitory”.
